Target: T1, 11β-HSD1 (Homo sapiens, UniProt P28845)
T1 construct: 10 µL of a microsome (1.13 µg/mL 11β-HSD1) solution in PBS; tissue XenoTech Lot No. 1410013; host or cells: pooled human liver microsomes
Test: Inhibition of 11β-HSD1 assay (cortisone to cortisol, microsomes, cortisol ELISA)
Assay type: biochemical
Conditions: 5 inhibitor concentrations, three independent determinations; read-out: IC50 ± SD 11β-HSD1
Protocol: 18-beta-Glycyrrhetinic acid was obtained from Acros Organic; phosphate buffer powder, cortisone, NADPH tetrasodium salt, and NAD Cofactor were obtained from Sigma-Aldrich; dimethylsulfoxide was obtained from POCh Poland; and carbenoxolone (sodium salt) was obtained from Cayman Chemical Company, Ann Arbor, Michigan, USA. Pooled human liver microsomes, mixed gender, 1 mL, 20 mg/mL, Lot No. 1410013, were obtained from XenoTech. Cortisol Elisa Ref DKO001, Lot No. 5148A was obtained from […]. […] L160706125, was obtained from Cloud-Clone Corp. PBS, Lot No. H161008, was obtained from Pan Biotech. Human kidney microsomes, mixed gender, 0.5 mL, 10 mg/mL, Lot No. 1710160, were obtained from XenoTech. […] L191113457, was obtained from Cloud-Clone Corp. […] The microplates were incubated on an orbital shaker for 150 min at 37 °C. […] The quantity of cortisol formed from cortisone was determined using a cortisol ELISA kit, […].

Amino acid sequences for entries named in this document (tags omitted). A change or cut given only in a name is not applied to a line headed by its entry.
UniProt P28845: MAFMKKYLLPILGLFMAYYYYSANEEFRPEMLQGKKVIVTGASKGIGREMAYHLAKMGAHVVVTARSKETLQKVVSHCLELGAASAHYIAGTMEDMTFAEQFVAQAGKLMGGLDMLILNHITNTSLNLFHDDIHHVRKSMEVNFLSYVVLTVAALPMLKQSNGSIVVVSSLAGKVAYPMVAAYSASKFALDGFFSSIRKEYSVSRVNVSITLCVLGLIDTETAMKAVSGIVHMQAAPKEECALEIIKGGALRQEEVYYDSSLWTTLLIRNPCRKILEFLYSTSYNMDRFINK

- IC50: < 500 nM
SMILES: CC1(C)[C@@H](OC(=O)CCC(=O)O)CC[C@]2(C)[C@H]3C(=O)C=C4[C@@H]5C[C@@](C)(C(=O)O)CC[C@]5(C)CC[C@@]4(C)[C@]3(C)CC[C@@H]12 [Carbenoxolone, carbenoxolone, reference compound]
